The subject of assay [1] is Idua-W402X MEFs. The assay can be described thus: MEF α-L-iduronidase activity assay in Idua-W402X MEFs. It counts as cell-based, mouse. Conditions: for α-L-iduronidase activity relative to background levels / α-L-iduronidase activity restored compared with G418: 60 μM or 30 μg/ml, 48 hours (FIG. 2); for effect on α-L-iduronidase activity over the concentrations indicated: 48 hours (FIG. 3A, 3B, 7C, 7E); for synergy with G418 or PTC124 on α-L-iduronidase activity: combined with G418 or PTC124 (FIG. 3A, 3B).

Assay [2] concerns Idua-W402X MEFs. The assay can be described thus: MEF glycosaminoglycan quantitation (Blyscan) in Idua-W402X MEFs. The class given is cell-based, mouse. The conditions noted are these: 48 hours; for effect on GAG accumulation: dye-binding assay (FIG. 4, 7D). Here is the method: MEFs were seeded into 6-well culture dishes at a density of 5×10^4 cells per well. MEFs were grown to 50% confluency and then treated with screening agents for 48 hours. Subsequently, the media was removed and the cells were scraped into 500 μl of 0.2 mg/ml papain in pH 6.5 phosphate buffer containing 0.6 mg/ml cysteine. The cell lysates were incubated in the papain solution at 65° C. with gentle agitation for 3 hours. Samples were briefly microfuged to remove debris. […] Briefly, 50 μl of each supernatant was mixed with 500 μl of the Blyscan Dye Reagent to bind sulfated GAGs. The dye-bound GAGs were pelleted by microfuging for 10 minutes at 10,000 g at room temperature. 500 μl of the Blyscan Dye Dissociation Reagent was added to each sample to dissociate the GAGs from the dye. 200 μl of each sample was transferred to a 96-well plate (Corning 3631) and the absorbance was measured at a wavelength of 650 nm absorbance using a GloMax® Discover System (Promega). […] The total protein concentration in each lysate was determined using the Bio-Rad Protein Assay from a standard curve generated using bovine serum albumin. The GAG levels are expressed as nanograms of GAGs per milligram of total protein.

Assay [3] relates to Idua-W402X dual luciferase reporter in HEK293 cells. The assay can be described thus: Idua-W402X dual luciferase readthrough reporter in HEK293 cells. It counts as cell-based. Conditions: 24 hours (FIG. 5B).
For assay [4], the system named is Idua mRNA in Idua-W402X MEFs. Put plainly: Steady state Idua mRNA by qPCR in Idua-W402X MEFs. It counts as cell-based, mouse. The conditions noted are these: 48 hours, relative to vehicle only. Background: Real-time PCR tracks product formation cycle by cycle.
In assay [5] the test system is Idua-W402X mice. Put plainly: Specific GAGs in urine of Idua-W402X mice by mass spectrometry. It counts as in vivo, mouse. The conditions noted are these: 120 mg/kg once daily oral gavage, 2 weeks. Here is the method:
Doses ranged from 30-120 mg/kg.
Urine samples were collected at the end of treatment and subjected to mass spectrometry analysis to quantify the levels of dermatan sulfate (FIG. 9A), heparan sulfate (FIG. 9B), and chondroitin sulfate (FIG. 9C).

The test system of assay [6] is Idua-W402X mice. The assay can be described thus: GAG quantitation in tissues of Idua-W402X mice after oral triamterene. The conditions noted are these: two weeks.

Consider `COc1cc2nc(N3CCN(C(=O)C4COc5ccccc5O4)CC3)nc(N)c2cc1OC` (stereo not shown) [Doxazocin], for which, in the assay with Idua-W402X MEFs [1], the “α-L-iduronidase activity relative to background levels” value is “increased α-L-iduronidase activity above background levels”; the “α-L-iduronidase activity restored compared with G418” value is “restored more α-L-iduronidase activity than the potent, but toxic, aminoglycoside G418”; the “effect on α-L-iduronidase activity over the concentrations indicated” value (“effect … over the concentrations indicated” below) is recorded as “increased α-L-iduronidase activity in a dose-dependent manner”; the “synergy with G418 or PTC124 on α-L-iduronidase activity” value is reported as “synergy was not observe”. Besides, the “effect on GAG accumulation” value with Idua-W402X MEFs [2] is given as “dose-dependent decrease in GAG accumulation”. The “Idua-W402X readthrough relative to basal levels” value in assay [3] is on record as “no significant increase in readthrough relative to basal levels”. The “increase of Idua mRNA levels” value in assay [4] is roughly 2 fold.
Take `Nc1nc(N)c2nc(-c3ccccc3)c(N)nc2n1` [Triamterene, 2,4,7-triamino-6-phenylpteridine]: in the assay with Idua-W402X MEFs [1], the “α-L-iduronidase activity relative to background levels” value was “increased α-L-iduronidase activity above background levels”; the “α-L-iduronidase activity restored compared with G418” value is given as “restored more α-L-iduronidase activity than the potent, but toxic, aminoglycoside G418”; the “effect … over the concentrations indicated” value is listed as “increased α-L-iduronidase activity in a dose-dependent manner”; the “synergy with G418 or PTC124 on α-L-iduronidase activity” value was “synergy was not observe”. Besides, in the assay on Idua-W402X MEFs [2] (dye-binding assay (FIG. 4)), the “GAG level reached relative to wildtype cells” value is “reducing GAGs to near wildtype levels”. In addition, the “effect on GAG accumulation” value in the assay on Idua-W402X MEFs [2] is “dose-dependent decrease in GAG accumulation”. Besides, in assay [3], the “Idua-W402X readthrough relative to basal levels” value is “dose-dependent increase in Idua-W402X readthrough”. In addition, in the assay on Idua-W402X mice [5], the “chondroitin sulfate in urine” value is given as “remained unchanged”, the “dermatan sulfate in urine compared to untreated controls” value is recorded as “significantly decreased” and the “heparan sulfate in urine compared to untreated controls” value is “significantly decreased”. Further, the “tissue GAGs relative to wildtype levels” value in the assay with Idua-W402X mice [6] (120 mg/kg once daily oral gavage, all tissues examined) is “reduced GAGs to wildtype levels in all tissues examined”. Moreover, the “tissue GAGs relative to vehicle controls” value in the assay on Idua-W402X mice [6] (30-120 mg/kg once daily oral gavage, bone, brain, heart, kidney, liver, lung, spleen) is listed as “dose-dependent decrease in GAGs”.
For `N=C(N)NC(=O)c1nc(Cl)c(N)nc1N` [amiloride], the “effect … over the concentrations indicated” value with Idua-W402X MEFs [1] is reported as “did not generate a significant, dose-dependent increase in α-L-iduronidase activity”. In the assay on Idua-W402X MEFs [2], the “effect on GAG accumulation” value is on record as “did not reduce GAGs”.
Regarding `NS(=O)(=O)c1cc2c(cc1Cl)NCNS2(=O)=O` [thiazide], the “effect … over the concentrations indicated” value in the assay with Idua-W402X MEFs [1] is given as “did not affect”. Also, the “effect of co-administration on the ability of triamterene to relieve MPS I-H biochemical endpoints” value in the assay with Idua-W402X MEFs [1] (thiazide combined with triamterene, 48 hours (FIG. 7E)) is given as “did not inhibit the ability of triamterene to relieve these MPS I-H biochemical endpoints”. The “effect on GAG accumulation” value with Idua-W402X MEFs [2] was “did not affect”.
Regarding `O=C(CCCCCCC(=O)Nc1ccccc1)NO` [vorinostat], the “α-L-iduronidase activity relative to background levels” value in the assay on Idua-W402X MEFs [1] is recorded as “increased α-L-iduronidase activity above background levels”.

These data come from patent publication US20210244738A1, “COMPOSITIONS AND METHODS FOR SUPPRESSING NONSENSE MUTATIONS” (The UAB Research Foundation, priority 2018, published 2021).
